From patent US9422333B2, “HCV protease inhibitors and uses thereof” (Celgene Avilomics Research, Inc., priority 2008, dated 2016) come the findings set out here.

By UniProt entry, the sequences of proteins in these tests, tags left out.
UniProt P26663, whole entry, looked up: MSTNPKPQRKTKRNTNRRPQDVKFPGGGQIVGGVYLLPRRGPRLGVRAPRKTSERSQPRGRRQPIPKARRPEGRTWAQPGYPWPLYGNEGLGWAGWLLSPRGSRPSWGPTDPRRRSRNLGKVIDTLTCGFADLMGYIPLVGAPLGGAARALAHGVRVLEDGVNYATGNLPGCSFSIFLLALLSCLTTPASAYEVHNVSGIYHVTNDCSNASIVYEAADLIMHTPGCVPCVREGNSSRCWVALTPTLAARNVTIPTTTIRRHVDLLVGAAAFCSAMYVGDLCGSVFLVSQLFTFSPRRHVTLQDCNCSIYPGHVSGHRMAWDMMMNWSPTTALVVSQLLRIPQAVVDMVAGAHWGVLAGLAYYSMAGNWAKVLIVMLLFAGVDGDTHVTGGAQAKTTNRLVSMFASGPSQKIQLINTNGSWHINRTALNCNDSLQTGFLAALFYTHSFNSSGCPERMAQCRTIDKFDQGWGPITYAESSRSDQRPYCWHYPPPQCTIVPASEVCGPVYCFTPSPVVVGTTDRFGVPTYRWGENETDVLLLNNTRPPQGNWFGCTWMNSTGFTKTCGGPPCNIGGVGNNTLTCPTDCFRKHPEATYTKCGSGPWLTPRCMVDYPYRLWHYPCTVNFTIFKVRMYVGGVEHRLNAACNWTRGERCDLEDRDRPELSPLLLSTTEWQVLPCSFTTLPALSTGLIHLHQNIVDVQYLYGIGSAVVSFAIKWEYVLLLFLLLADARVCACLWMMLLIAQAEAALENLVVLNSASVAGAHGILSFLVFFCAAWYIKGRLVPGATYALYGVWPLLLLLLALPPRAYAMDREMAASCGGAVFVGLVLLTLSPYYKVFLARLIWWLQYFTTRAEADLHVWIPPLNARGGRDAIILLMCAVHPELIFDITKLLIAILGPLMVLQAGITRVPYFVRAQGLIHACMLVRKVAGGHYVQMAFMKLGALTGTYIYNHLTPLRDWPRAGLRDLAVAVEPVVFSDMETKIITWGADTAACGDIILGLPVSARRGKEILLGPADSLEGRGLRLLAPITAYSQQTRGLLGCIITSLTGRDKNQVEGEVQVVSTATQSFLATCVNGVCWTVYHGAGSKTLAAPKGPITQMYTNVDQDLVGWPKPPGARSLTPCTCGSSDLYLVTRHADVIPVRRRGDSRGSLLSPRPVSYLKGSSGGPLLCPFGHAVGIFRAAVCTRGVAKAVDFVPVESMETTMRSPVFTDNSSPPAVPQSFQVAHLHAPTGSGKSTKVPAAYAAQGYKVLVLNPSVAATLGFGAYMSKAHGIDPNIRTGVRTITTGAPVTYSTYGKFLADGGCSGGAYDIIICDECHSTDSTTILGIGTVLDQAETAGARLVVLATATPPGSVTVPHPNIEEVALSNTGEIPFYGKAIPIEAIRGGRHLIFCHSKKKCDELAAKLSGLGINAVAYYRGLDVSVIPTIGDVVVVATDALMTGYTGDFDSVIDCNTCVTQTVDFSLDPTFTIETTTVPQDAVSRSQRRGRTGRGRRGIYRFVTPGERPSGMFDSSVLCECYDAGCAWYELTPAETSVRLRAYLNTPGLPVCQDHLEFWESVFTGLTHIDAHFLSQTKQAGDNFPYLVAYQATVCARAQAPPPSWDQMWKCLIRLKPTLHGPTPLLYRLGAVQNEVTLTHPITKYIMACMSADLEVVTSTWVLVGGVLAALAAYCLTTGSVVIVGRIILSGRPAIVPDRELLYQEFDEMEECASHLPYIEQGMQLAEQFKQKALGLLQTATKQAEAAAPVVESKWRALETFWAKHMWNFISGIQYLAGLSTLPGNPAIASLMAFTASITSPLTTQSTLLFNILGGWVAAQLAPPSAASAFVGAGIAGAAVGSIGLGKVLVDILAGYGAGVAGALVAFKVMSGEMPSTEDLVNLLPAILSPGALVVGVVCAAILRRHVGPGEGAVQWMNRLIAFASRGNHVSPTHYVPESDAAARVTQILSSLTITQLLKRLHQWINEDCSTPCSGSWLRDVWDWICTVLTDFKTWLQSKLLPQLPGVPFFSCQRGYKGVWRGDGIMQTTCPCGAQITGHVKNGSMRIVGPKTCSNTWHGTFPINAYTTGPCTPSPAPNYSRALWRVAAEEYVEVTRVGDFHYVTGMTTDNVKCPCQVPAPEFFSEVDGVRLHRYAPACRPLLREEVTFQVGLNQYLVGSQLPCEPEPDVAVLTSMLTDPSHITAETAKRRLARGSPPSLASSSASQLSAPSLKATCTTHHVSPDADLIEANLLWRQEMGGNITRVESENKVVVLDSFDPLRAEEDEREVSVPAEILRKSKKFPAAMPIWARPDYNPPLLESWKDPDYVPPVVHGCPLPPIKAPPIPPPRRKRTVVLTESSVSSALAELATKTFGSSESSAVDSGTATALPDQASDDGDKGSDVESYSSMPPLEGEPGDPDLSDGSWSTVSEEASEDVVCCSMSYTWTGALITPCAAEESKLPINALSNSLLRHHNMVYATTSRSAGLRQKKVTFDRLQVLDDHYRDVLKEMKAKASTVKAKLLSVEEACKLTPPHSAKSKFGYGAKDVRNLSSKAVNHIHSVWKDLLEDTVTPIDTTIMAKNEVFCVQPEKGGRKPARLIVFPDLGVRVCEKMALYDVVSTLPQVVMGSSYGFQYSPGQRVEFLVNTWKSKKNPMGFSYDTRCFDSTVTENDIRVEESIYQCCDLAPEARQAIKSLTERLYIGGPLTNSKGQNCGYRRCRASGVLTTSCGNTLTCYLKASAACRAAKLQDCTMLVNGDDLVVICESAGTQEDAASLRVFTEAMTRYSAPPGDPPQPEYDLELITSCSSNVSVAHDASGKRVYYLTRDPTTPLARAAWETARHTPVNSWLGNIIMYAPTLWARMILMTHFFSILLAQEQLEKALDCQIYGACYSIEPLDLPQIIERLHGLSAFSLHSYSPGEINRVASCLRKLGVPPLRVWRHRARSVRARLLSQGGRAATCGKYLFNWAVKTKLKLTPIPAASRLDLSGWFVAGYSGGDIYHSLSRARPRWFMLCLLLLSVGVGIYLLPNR

The structures appear in SMILES notation.

For the test, the target named is HCV NS3/4A 1b protease wild type (Hepatitis C virus genotype 1b (isolate BK) (HCV), UniProt P26663). Kind of test: HCV protease FRET assay for WT and mutated NS3/4A 1b enzymes (IC50_APP). Conditions: no pre-incubation, read-out: IC50_APP (apparent IC50). The format is biochemical.

For the compound `C=CC(=O)NC[C@H](NC(=O)[C@@H](NC(=O)c1cnccn1)C1CCCCC1)C(=O)N1C[C@@H]2CCC[C@@H]2[C@H]1C(=O)N[C@@H](CCC)C(OC(=O)C(F)(F)F)C(=O)NC1CC1` (stereo in doubt) [Compound I-23, (S)-3-((1S,3aR,6aS)-2-((S)-3-acrylamido-2-((S)-2-cyclohexyl-2-(pyrazine-2-carboxamido)acetamido)propanoyl)octahydrocyclopenta[c]pyrrole-1-carboxamido)-1-(cyclopropylamino)-1-oxohexan-2-yl 2,2,2-trifluoroacetate], the IC50 (commonly the concentration that gives 50% inhibition) was over 111 nM.
